# Results as given in article PMC6628435, “Chemical Synthesis, Proper Folding, Nav Channel Selectivity Profile and Analgesic Properties of the Spider Peptide Phlotoxin 1” (Toxins, 2019).
# Sequences of proteins named here, by UniProt entry; tags and fusion partners are left off.
# UniProt Q15858, whole entry: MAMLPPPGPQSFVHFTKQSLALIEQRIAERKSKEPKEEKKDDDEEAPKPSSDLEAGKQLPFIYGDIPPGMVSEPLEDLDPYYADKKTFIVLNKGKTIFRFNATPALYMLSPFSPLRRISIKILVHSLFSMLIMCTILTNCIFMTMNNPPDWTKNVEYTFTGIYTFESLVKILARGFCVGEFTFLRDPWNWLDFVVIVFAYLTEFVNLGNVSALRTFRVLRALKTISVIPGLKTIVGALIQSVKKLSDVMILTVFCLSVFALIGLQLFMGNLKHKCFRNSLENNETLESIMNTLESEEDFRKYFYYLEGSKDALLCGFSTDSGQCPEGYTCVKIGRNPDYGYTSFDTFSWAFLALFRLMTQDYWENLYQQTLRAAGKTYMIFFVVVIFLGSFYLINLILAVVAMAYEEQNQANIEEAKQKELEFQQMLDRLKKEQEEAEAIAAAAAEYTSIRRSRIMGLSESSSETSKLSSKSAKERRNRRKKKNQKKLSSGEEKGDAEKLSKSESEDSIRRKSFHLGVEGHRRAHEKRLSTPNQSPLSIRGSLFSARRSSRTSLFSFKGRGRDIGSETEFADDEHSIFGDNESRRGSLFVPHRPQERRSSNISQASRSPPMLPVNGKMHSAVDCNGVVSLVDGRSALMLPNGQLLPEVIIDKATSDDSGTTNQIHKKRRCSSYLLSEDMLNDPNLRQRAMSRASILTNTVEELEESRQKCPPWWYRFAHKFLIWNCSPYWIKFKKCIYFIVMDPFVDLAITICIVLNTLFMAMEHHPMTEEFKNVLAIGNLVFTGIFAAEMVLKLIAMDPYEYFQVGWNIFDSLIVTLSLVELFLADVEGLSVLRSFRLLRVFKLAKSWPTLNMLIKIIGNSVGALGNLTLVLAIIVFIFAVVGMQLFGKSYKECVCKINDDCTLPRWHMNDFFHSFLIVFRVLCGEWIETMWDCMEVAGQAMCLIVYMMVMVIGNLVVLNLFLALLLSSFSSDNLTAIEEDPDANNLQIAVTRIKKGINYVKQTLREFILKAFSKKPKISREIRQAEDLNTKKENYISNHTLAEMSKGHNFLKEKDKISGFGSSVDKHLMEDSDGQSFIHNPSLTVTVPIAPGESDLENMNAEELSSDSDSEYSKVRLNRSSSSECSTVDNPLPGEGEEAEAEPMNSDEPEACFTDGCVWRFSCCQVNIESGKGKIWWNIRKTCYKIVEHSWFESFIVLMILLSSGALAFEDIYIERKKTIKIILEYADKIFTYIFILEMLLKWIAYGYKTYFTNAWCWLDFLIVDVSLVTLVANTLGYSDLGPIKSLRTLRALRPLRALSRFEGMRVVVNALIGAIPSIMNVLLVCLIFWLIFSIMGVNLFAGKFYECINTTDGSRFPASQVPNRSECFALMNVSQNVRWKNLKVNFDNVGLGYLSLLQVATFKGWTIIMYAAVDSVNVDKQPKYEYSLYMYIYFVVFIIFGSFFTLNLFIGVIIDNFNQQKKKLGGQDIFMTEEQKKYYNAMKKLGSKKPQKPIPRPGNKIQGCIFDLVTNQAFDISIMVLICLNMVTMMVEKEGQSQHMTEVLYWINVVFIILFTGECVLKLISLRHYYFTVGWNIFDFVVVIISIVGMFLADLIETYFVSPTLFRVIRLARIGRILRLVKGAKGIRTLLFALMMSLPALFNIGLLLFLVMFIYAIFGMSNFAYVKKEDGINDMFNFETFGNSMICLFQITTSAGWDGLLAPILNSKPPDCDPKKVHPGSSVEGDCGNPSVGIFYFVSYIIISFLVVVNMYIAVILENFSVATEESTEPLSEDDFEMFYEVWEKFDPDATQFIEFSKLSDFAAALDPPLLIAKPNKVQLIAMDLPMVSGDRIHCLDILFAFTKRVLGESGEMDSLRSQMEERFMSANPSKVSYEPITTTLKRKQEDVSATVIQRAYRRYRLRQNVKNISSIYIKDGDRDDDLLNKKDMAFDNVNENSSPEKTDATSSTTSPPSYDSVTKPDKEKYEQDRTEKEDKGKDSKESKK
# Molecular target: T1, human Nav1.7 (Homo sapiens, UniProt Q15858)
# T1 construct: expressed in transfected cells
# Experiment: Automated patch-clamp (Nanion SyncroPatch 384PE) on CHO cells expressing human Nav1.7
# Format: cell-based
# From the text: We used a CHO mammalian cell line expressing the human Nav1.7 instead of Xenopus oocytes for the pharmacological evaluation. […] 100-ms pulses from −100 mV to −10 mV were applied at a frequency of 0.2 Hz and various concentrations of PhlTx1 were applied to the cells. […] Using a manual patch clamp, which is better suited to investigate current recovery from block than an automated patch clamp that requires several washing steps, we investigated the reversibility properties of a PhlTx1 block.
# CHO cells stably expressing the human Nav1.7 cells were cultured in Dulbecco’s Modified Eagle’s Medium (DMEM) supplemented with 10% fetal calf serum, 1 mM pyruvic acid, 4 mM glutamine, 10 IU/mL penicillin and 10 μg/mL streptomycin (Gibco, Grand Island, NY, USA), and incubated at 37 °C in a 5% CO2 atmosphere. For automated patch-clamp recordings, cells were detached with trypsin and floating single cells were diluted (~300,000 cells/mL) in medium contained (in mM): 4 KCl, 140 NaCl, 5 Glucose, 10 HEPES (pH 7.4, osmolarity 290 mOsm).
# Chips with single-hole and high-resistance (~6–7 MΩ) were used for CHO cell recordings. […] Percentages of current inhibitions were measured at the end of a 12- to 15-min application time (12-min for fast blocking toxins; 15-min for slow blocking ones). […]
compound,measurement,value
CC(C)C[C@H](NC(=O)[C@H](CCCCN)NC(=O)[C@H](Cc1c[nH]c2ccccc12)NC(=O)[C@H](CCCCN)NC(=O)[C@@H]1CSSC[C@@H]2NC(=O)[C@H](CCC(=O)O)NC(=O)[C@H](CC(N)=O)NC(=O)[C@H](CCCCN)NC(=O)CNC(=O)[C@@H]3CCCN3C(=O)[C@H]([C@@H](C)O)NC(=O)[C@@H]3CSSC[C@H](NC(=O)[C@H](C(C)C)NC(=O)[C@H](CCCNC(=N)N)NC(=O)[C@H](CC(N)=O)NC(=O)[C@@H]4CCCN4C(=O)[C@H](CSSC[C@H](NC(=O)[C@H](C)N)C(=O)N[C@@H](CCCCN)C(=O)NCC(=O)N[C@@H](C(C)C)C(=O)N[C@@H](Cc4ccccc4)C(=O)N[C@@H](CC(=O)O)C(=O)N[C@@H](C)C(=O)N3)NC2=O)C(=O)N[C@@H](CO)C(=O)N[C@@H](CC(=O)O)C(=O)N[C@@H](CCCCN)C(=O)N[C@@H](Cc2cnc[nH]2)C(=O)N[C@@H](CCCCN)C(=O)N[C@@H](Cc2c[nH]c3ccccc23)C(=O)N1)C(=O)O [HwTx-I],IC50,25.1 nM
